Experimental data from patent US10562947B2, “Compositions and methods for preventing or treating diseases, conditions or processes characterized by aberrant fibroblast proliferation and extracellular matrix deposition” (MOERAE MATRIX, INC., priority 2011, dated 2020).

Legend:
Assay in all cases: Kinase Profiling Assay
Assay type in all cases: biochemical
Conditions in all cases: 100 μM peptide
[1] = molecular target: T1, JAK3(h) (Homo sapiens, UniProt P52333)
T1 construct: purchased Millipore
T1 sequence (P52333 1-1124): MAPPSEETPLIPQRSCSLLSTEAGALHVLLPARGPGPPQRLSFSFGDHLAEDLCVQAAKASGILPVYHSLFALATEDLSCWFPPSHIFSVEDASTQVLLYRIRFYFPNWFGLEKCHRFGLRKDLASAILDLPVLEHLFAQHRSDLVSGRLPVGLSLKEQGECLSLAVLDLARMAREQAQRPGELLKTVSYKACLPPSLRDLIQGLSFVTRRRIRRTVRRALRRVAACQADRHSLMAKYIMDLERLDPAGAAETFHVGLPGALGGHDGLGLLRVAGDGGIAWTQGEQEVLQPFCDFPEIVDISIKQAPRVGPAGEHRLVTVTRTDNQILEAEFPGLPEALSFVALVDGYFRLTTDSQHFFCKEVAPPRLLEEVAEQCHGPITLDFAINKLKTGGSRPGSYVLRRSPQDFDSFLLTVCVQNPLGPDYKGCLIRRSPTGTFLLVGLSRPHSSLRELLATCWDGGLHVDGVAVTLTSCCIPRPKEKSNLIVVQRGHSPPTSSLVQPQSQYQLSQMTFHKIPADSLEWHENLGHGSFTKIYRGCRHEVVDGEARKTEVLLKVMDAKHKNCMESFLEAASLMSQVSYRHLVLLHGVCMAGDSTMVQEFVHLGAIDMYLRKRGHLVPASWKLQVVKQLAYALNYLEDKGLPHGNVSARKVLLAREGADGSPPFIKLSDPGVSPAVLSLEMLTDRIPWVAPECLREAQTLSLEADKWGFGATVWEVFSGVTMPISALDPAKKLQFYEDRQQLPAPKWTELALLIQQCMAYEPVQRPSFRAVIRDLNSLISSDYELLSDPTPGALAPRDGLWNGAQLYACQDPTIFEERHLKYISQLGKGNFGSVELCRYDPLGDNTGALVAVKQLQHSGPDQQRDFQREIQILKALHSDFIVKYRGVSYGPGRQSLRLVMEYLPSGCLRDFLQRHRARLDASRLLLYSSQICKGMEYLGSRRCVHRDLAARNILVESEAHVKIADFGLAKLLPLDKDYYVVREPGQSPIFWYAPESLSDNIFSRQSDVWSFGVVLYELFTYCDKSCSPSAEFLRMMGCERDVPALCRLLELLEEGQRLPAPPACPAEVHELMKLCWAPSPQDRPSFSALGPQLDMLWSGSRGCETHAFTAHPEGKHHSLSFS
How it was run: (§1)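 Peptides designed to inhibit MK2 were checked against a broad human kinase panel (266 enzymes), with duplicate measurement of every activity.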

[2] = molecular target: T2, BrSK2(h) (Homo sapiens, UniProt Q8IWQ3)
T2 sequence (Q8IWQ3 1-736): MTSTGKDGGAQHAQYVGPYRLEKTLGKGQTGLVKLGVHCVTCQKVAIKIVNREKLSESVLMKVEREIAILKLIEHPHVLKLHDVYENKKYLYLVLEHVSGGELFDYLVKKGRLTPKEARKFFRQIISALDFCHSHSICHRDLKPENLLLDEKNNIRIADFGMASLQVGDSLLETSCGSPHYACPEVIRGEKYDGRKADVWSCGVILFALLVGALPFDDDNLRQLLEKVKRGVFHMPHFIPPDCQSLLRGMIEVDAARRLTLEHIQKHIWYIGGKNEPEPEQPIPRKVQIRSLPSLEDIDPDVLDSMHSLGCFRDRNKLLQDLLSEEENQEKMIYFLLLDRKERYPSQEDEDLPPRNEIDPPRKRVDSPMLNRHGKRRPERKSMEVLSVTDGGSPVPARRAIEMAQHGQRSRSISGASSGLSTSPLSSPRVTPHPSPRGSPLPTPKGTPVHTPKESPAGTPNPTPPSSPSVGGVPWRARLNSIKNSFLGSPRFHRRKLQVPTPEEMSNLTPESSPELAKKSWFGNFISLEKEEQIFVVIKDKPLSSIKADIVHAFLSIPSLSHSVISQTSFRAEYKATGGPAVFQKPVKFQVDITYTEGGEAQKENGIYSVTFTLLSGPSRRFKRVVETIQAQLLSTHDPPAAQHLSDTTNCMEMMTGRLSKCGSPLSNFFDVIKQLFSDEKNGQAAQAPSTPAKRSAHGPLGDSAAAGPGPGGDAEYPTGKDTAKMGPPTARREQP
How it was run: as §1

[3] = molecular target: T3, TAO1(h) (Homo sapiens, UniProt Q7L7X3)
T3 sequence (Q7L7X3 1-1001): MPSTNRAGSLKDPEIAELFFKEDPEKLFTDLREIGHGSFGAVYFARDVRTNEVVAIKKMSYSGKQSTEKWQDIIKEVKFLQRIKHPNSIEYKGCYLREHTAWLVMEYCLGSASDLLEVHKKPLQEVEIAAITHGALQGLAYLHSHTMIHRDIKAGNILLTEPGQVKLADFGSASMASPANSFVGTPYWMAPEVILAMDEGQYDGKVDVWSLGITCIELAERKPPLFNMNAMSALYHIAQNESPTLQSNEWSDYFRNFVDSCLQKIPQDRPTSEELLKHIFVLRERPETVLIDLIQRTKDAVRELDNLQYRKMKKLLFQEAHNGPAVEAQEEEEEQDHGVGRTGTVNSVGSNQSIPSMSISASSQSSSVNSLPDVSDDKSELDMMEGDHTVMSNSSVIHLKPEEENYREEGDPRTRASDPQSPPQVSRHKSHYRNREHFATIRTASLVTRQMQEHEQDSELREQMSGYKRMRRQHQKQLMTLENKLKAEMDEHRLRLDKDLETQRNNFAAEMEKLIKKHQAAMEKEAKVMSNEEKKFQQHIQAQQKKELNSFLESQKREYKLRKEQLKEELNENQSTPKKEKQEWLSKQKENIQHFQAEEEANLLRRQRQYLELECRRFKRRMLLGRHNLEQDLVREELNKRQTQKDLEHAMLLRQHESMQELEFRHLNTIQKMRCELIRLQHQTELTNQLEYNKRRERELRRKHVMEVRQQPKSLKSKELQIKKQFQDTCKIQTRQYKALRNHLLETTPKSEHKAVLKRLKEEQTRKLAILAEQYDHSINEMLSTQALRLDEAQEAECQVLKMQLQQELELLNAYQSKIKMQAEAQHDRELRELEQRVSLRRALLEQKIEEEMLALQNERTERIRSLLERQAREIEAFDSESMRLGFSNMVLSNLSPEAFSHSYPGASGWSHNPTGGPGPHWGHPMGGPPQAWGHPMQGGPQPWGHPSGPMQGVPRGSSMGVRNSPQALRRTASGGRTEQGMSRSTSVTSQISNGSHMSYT
How it was run: as §1

[4] = molecular target: CDK2/cyclinE(h) (Homo sapiens, UniProt P24941)
How it was run: as §1

**Q.** “YARAAARQARAKALNRQLGVA (Mammalian) [MMI-0200]” was tested. Which “JAK3(h) % activity” value [1] did it give?
**A.** 117%

**Q.** What about the “BrSK2(h) % activity” value [2] of the same sequence?
**A.** 102%

**Q.** And the “TAO1(h) % activity” value [3]?
**A.** 105%

**Q.** What about the “CDK2/cyclinE(h) % activity” value [4] of the same sequence?
**A.** 112%
